The record followed here is publication PMC11589570, “Critical assessment of LC3/GABARAP ligands used for degrader development and ligandability of LC3/GABARAP binding pockets” (Nature Communications, 2024).

What is called Ki is a dissociation constant, usually derived from enzyme kinetics or from competition with a known ligand.

Among the targets are 1_(1-117) (human) (UniProt Q9H0R8); LC3B_(1-120) (human) (UniProt Q9GZQ8); _(1-116) (human) (UniProt O95166).
Common to all, as to assay: FP

With PCM1-LIR, the results for the Ki with 1_(1-117) (human), with LC3B_(1-120) (human) and in the test with _(1-116) (human) were 11.2 µM, 299 µM and 10.1 µM, respectively.
